## Antibody variant affinities, Ab-14 light chain, assay 1

Target: peptide PDVDLGDISGINAS, taken from heptad repeat 2 (HR2) of SARS-CoV-2 spike.

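The parent was found by panning a naive human phage display library on the peptide. The library (AAYL50) carries one to three amino acid substitutions per variant, with no insertions or deletions. The assay is AlphaSeq: two haploid yeast populations carry antibody and antigen on their surface. After mating in shaken culture at 30 °C for 16 h, diploids were selected and their barcode pairs sequenced. Read counts were normalised to the haploid input and turned into Kd by a linear fit to BCL2-family pairs of known affinity, for each replicate. Mating was done three times.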

Each scFv is VH, a 15-residue (Gly4Ser)3 linker, VL, as in the parent Ab-14, and differs from it in the CDRs of the light chain only.
VH: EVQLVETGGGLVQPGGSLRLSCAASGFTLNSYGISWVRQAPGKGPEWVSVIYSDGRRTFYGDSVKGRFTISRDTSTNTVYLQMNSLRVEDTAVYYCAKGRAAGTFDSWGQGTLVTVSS
VL: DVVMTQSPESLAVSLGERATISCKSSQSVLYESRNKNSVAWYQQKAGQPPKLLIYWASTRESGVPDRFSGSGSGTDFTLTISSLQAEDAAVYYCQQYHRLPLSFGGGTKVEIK

Variants are written as CDR1, CDR2 and CDR3 of the light chain (limits as in the source). Parent: KSSQSVLYESRNKNSVA, WASTRES, QQYHRLPLS. Every variant below is changed at R60 of the VL (sequential numbering). Kd is apparent (estimated from mating counts) and averaged on the log scale over replicates with a signal. Smaller is tighter. An entry "nd" has no value in the source: the pair was not observed among the diploids in any replicate. This suggests poor binding but is not conclusive. Order: sorted from the lowest average up, undetected variants last. Empty control strains, which show no peptide, gave a signal in 18% of pairings with library AAYL50; the median was 15 µM and 95% of these signals were weaker than 970 nM. No background was subtracted. For each scFv, signals with the empty controls are counted beside the result. For reference, the parent read 4.4 nM as the reference entry and 48 nM as a member of this library.

Variant KSSQSVLYESRNKNSVA | WASTMES | QQYHRLPLS gave 110 nM (2 of 3 replicates; controls 1 of 9).
Variant KSSQSVLYESSNKNSVA | WASTLES | QQYHRLPLS gave 200 nM (3 of 3 replicates; controls 2 of 9).
Variant KSSQSVLYESENKNSVA | WASTCNS | QQYHRLPLS gave 410 nM (3 of 3 replicates; controls 3 of 9).
Variant KSSQEVLYESRNKNSVA | WASTKES | QQYHRLFLS gave 420 nM (3 of 3 replicates; controls 5 of 9).
Variant KSSQSVLYESRNKNSVA | WASIQES | QQYHRLPLS gave 1.0 µM (3 of 3 replicates; controls 1 of 9).
Variant KSSQSVLYESRNKNSVA | WASTPES | DQYHRLPLS gave 1.8 µM (3 of 3 replicates; controls 2 of 9).
Variant KSSQSVLYESRNKNSVP | WASTNES | QQYHRLPLD gave 2.0 µM (1 of 3 replicates; controls 1 of 9).
Variant KSVQSVLYESRNKNSVA | FASTEES | QQYHRLPLS gave 3.4 µM (1 of 3 replicates; controls 3 of 9).
Variant KSSLSVLYESRNKNSVA | WALTYES | QQYHRLPLS gave 4.9 µM (1 of 3 replicates; controls 0 of 9).
Variant KSSQSVLSESRNKNSVA | WALTSES | QQYHRLPLS gave 5.5 µM (2 of 3 replicates; controls 2 of 9).
Variant KSSLSVLYESRNKNSVA | WASLTES | QQYHRLPLS gave 5.6 µM (2 of 3 replicates; controls 2 of 9).
Variant KSSQSVLYESLNKNSNA | WASTQES | QQYHRLPLS gave 6.5 µM (1 of 3 replicates; controls 1 of 9).
Variant KSSQSVLYESRNKNSVI | WASTAES | KQYHRLPLS gave 13 µM (1 of 3 replicates; controls 2 of 9).
Variant KSSGSVLYESRTKNSVA | WASTNES | QQYHRLPLS gave 27 µM (2 of 3 replicates; controls 8 of 9).
Variant KSSQSVLYESRNKNSVA | WASIKEQ | QQYHRLPLS gave 34 µM (1 of 3 replicates; controls 1 of 9).
Variant KSSQSVLYESRNKNSVA | WASTHES | QQYSRLVLS gave 47 µM (2 of 3 replicates; controls 3 of 9).
Variant KSSQSVLYESRNKQSVA | WASYTES | QQYHRLPLS gave 73 µM (1 of 3 replicates; controls 3 of 9).
Variant KWSQSVLYESENKNSVA | WASTQES | QQYHRLPLS gave 83 µM (1 of 3 replicates; controls 2 of 9).
Variant KSSQSVLYESRMKNSVA | WASTFES | QMYHRLPLS gave 140 µM (3 of 3 replicates; controls 4 of 9).
Variant KSSQSVLYESRNKNSVA | WAITTES | QQVHRLPLS gave 230 µM (1 of 3 replicates; controls 0 of 9).
Variant KHSQSVLYESRNKNSVA | WASTCES | QQYHRLPFS gave nd (0 of 3 replicates; controls 2 of 9).
Variant KSSQSVLYESPNKNSVA | WASTYES | KQYHRLPLS gave nd (0 of 3 replicates; controls 1 of 9).
Variant KSSQEVLYESRNKNSVA | WASTDES | QQYQRLPLS gave nd (0 of 3 replicates; controls 0 of 9).
Variant KSSQSVLYESRNICSVA | WASTWES | QQYHRLPLS gave nd (0 of 3 replicates; controls 0 of 9).
Variant KSSQSVLYESRNKNSVA | WASTVES | QQYHRLPLS gave nd (0 of 3 replicates; controls 0 of 9).
Variant KSSQQVLYESRNKASVA | WASTMES | QQYHRLPLS gave nd (0 of 3 replicates; controls 1 of 9).
Variant KSSQSVLYEPRNKNSDA | WASTMES | QQYHRLPLS gave nd (0 of 3 replicates; controls 1 of 9).
Variant KSSQSVLYESRNKNSVA | WAHTFES | QIYHRLPLS gave nd (0 of 3 replicates; controls 2 of 9).
Variant KSNQLVLYESRNKNSVA | WASTDES | QQYHRLPLS gave nd (0 of 3 replicates; controls 0 of 9).
Variant KSSQSVLYESRNKNSVN | WALTAES | QQYHRLPLS gave nd (0 of 3 replicates; controls 0 of 9).
Variant KSSTSVLYESRNKNSVA | WASTHES | QTYHRLPLS gave nd (0 of 3 replicates; controls 0 of 9).
Variant KSSQSVLYESRNKNHVA | WASTPES | QQEHRLPLS gave nd (0 of 3 replicates; controls 0 of 9).
Variant KSSQSVLYESRNINSVA | WASTGES | QQYHRLELS gave nd (0 of 3 replicates; controls 1 of 9).
Variant KESQSVLYESRNKNSKA | WASTGES | QQYHRLPLS gave nd (0 of 3 replicates; controls 2 of 9).
Variant ISSQSVLYESRNKISVA | WASTYES | QQYHRLPLS gave nd (0 of 3 replicates; controls 1 of 9).
Variant KSFQSVLYESRNKNSVA | WASWLES | QQYHRLPLS gave nd (0 of 3 replicates; controls 1 of 9).
Variant KSSQSVLYISRNKNSVA | WASTDES | QQYHRLPLS gave nd (0 of 3 replicates; controls 0 of 9).

Values reported by Engelhart et al. 2022, doi:10.1038/s41597-022-01779-4 (FLAb copy).